Data published in patent US20210046160A1 (Synthorx, Inc., priority 2019, published 2021).

Tests used:
[1] = test system: Human whole blood; assay: Whole blood cytokine release assay (MSD U-plex: IFN-γ, IL-4, IL-5, IL-6, IL-8, TNF-α); type: cell-based; details: normalized by formulation buffer value
Procedure: Cytokines released from the whole blood after treatment into the supernatant were measured using the Meso Scale Discovery (MSD) U-plex kit for six analytes (IFN-γ, IL-4, IL-5, IL-6, IL-8, TNF-α).
Blood in heparin tubes from 6 healthy donors were obtained from The Scripps Research Institute (TSRI; San Diego, Calif.) blood donor service. Samples were tested on the day of the collection; donors 1-3 on one day and donors 4-6 on another day.
A volume of 180 μL of prediluted whole blood was seeded onto a 96-well tissue culture plate. Then, 20 μL of 10× final test concentration of compounds was added to the assay plate. […] In addition, positive and negative controls were included to show the detection and specification of the assay: 100 μg/mL pre-coated Ultra LEAF mouse anti-human CD3 were used as the positive controls for the assay. […] […] No treatment also served as a negative control for the assay.
After adding the compound(s) to the well, the blood was incubated at 37° C. After centrifugation of the samples, supernatant was collected 24 h post treatment and stored at −80° C. before analysis. The human cytokines ([…], TNF-α, IL-8, IL-6, IL-5, IL-4) released from the assay were quantified with the MSD U-plex kit. The detection limit of each plate is reported from the MSD software, Discovery workbench. Each plate has a slightly different detection limit.

[2] = test system: CTLL-2; assay: CTLL-2 proliferation; type: cell-based

native IL-2: recombinant human wild-type interleukin-2 (Thermo #PHC0021; R&D Systems 202-IL-500 in Example 12)
IFN-γ level ([1]; donor D1, 0.03 μg/ml): 64.49
IL-6 level ([1]; donor D1, 0.03 μg/ml): 7.89
IL-8 level ([1]; donor D1, 0.03 μg/ml): 2.70
TNF-α level ([1]; donor D1, 0.03 μg/ml): 3.52
IFN-γ level ([1]; donor D1, 0.1 μg/ml): 95.61
IL-6 level ([1]; donor D1, 0.1 μg/ml): 13.48
IL-8 level ([1]; donor D1, 0.1 μg/ml): 3.80
TNF-α level ([1]; donor D1, 0.1 μg/ml): 4.60
IFN-γ level ([1]; donor D1, 0.2 μg/ml): 104.20
IL-6 level ([1]; donor D1, 0.2 μg/ml): 15.93
IL-8 level ([1]; donor D1, 0.2 μg/ml): 4.34
TNF-α level ([1]; donor D1, 0.2 μg/ml): 5.10
IFN-γ level ([1]; donor D1, 0.8 μg/ml): 115.31
IL-6 level ([1]; donor D1, 0.8 μg/ml): 22.76
IL-8 level ([1]; donor D1, 0.8 μg/ml): 5.88
TNF-α level ([1]; donor D1, 0.8 μg/ml): 5.97
IFN-γ level ([1]; donor D2, 0.03 μg/ml): 62.13
IL-6 level ([1]; donor D2, 0.03 μg/ml): 1.07
IL-8 level ([1]; donor D2, 0.03 μg/ml): 2.50
TNF-α level ([1]; donor D2, 0.03 μg/ml): 3.88
IFN-γ level ([1]; donor D2, 0.1 μg/ml): 135.05
IL-6 level ([1]; donor D2, 0.1 μg/ml): 2.66
IL-8 level ([1]; donor D2, 0.1 μg/ml): 5.00
TNF-α level ([1]; donor D2, 0.1 μg/ml): 11.07
IFN-γ level ([1]; donor D2, 0.2 μg/ml): 228.19
IL-6 level ([1]; donor D2, 0.2 μg/ml): 5.48
IL-8 level ([1]; donor D2, 0.2 μg/ml): 5.42
TNF-α level ([1]; donor D2, 0.2 μg/ml): 12.68
IFN-γ level ([1]; donor D2, 0.8 μg/ml): 290.42
IL-6 level ([1]; donor D2, 0.8 μg/ml): 17.26
IL-8 level ([1]; donor D2, 0.8 μg/ml): 6.00
TNF-α level ([1]; donor D2, 0.8 μg/ml): 14.38
IFN-γ level ([1]; donor D3, 0.03 μg/ml): 81.74
IL-6 level ([1]; donor D3, 0.03 μg/ml): 1.35
IL-8 level ([1]; donor D3, 0.03 μg/ml): 1.42
TNF-α level ([1]; donor D3, 0.03 μg/ml): 4.45
IFN-γ level ([1]; donor D3, 0.1 μg/ml): 224.27
IL-6 level ([1]; donor D3, 0.1 μg/ml): 2.73
IL-8 level ([1]; donor D3, 0.1 μg/ml): 3.76
TNF-α level ([1]; donor D3, 0.1 μg/ml): 10.68
IFN-γ level ([1]; donor D3, 0.2 μg/ml): 278.17
IL-6 level ([1]; donor D3, 0.2 μg/ml): 4.12
IL-8 level ([1]; donor D3, 0.2 μg/ml): 4.01
TNF-α level ([1]; donor D3, 0.2 μg/ml): 11.74
IFN-γ level ([1]; donor D3, 0.8 μg/ml): 314.96
IL-6 level ([1]; donor D3, 0.8 μg/ml): 10.13
IL-8 level ([1]; donor D3, 0.8 μg/ml): 4.53
TNF-α level ([1]; donor D3, 0.8 μg/ml): 13.84
IFN-γ level ([1]; donor D4, 0.03 μg/ml): 45.09
IL-6 level ([1]; donor D4, 0.03 μg/ml): 2.31
IL-8 level ([1]; donor D4, 0.03 μg/ml): 1.38
TNF-α level ([1]; donor D4, 0.03 μg/ml): 2.55
IFN-γ level ([1]; donor D4, 0.1 μg/ml): 68.31
IL-6 level ([1]; donor D4, 0.1 μg/ml): 4.02
IL-8 level ([1]; donor D4, 0.1 μg/ml): 1.60
TNF-α level ([1]; donor D4, 0.1 μg/ml): 3.16
IFN-γ level ([1]; donor D4, 0.2 μg/ml): 104.40
IL-6 level ([1]; donor D4, 0.2 μg/ml): 6.96
IL-8 level ([1]; donor D4, 0.2 μg/ml): 1.88
TNF-α level ([1]; donor D4, 0.2 μg/ml): 4.18
IFN-γ level ([1]; donor D4, 0.8 μg/ml): 81.72
IL-6 level ([1]; donor D4, 0.8 μg/ml): 19.67
IL-8 level ([1]; donor D4, 0.8 μg/ml): 2.28
TNF-α level ([1]; donor D4, 0.8 μg/ml): 4.88
IFN-γ level ([1]; donor D5, 0.03 μg/ml): 39.50
IL-6 level ([1]; donor D5, 0.03 μg/ml): 9.18
IL-8 level ([1]; donor D5, 0.03 μg/ml): 3.95
TNF-α level ([1]; donor D5, 0.03 μg/ml): 10.86
IFN-γ level ([1]; donor D5, 0.1 μg/ml): 47.44
IL-6 level ([1]; donor D5, 0.1 μg/ml): 10.94
IL-8 level ([1]; donor D5, 0.1 μg/ml): 4.44
TNF-α level ([1]; donor D5, 0.1 μg/ml): 12.89
IFN-γ level ([1]; donor D5, 0.2 μg/ml): 51.97
IL-6 level ([1]; donor D5, 0.2 μg/ml): 12.56
IL-8 level ([1]; donor D5, 0.2 μg/ml): 4.89
TNF-α level ([1]; donor D5, 0.2 μg/ml): 15.14
IFN-γ level ([1]; donor D5, 0.8 μg/ml): 61.31
IL-6 level ([1]; donor D5, 0.8 μg/ml): 17.12
IL-8 level ([1]; donor D5, 0.8 μg/ml): 5.80
TNF-α level ([1]; donor D5, 0.8 μg/ml): 16.45
IFN-γ level ([1]; donor D6, 0.03 μg/ml): 170.85
IL-6 level ([1]; donor D6, 0.03 μg/ml): 16.60
IL-8 level ([1]; donor D6, 0.03 μg/ml): 11.11
TNF-α level ([1]; donor D6, 0.03 μg/ml): 12.96
IFN-γ level ([1]; donor D6, 0.1 μg/ml): 387.76
IL-6 level ([1]; donor D6, 0.1 μg/ml): 28.98
IL-8 level ([1]; donor D6, 0.1 μg/ml): 17.45
TNF-α level ([1]; donor D6, 0.1 μg/ml): 16.94
IFN-γ level ([1]; donor D6, 0.2 μg/ml): 437.67
IL-6 level ([1]; donor D6, 0.2 μg/ml): 49.09
IL-8 level ([1]; donor D6, 0.2 μg/ml): 27.24
TNF-α level ([1]; donor D6, 0.2 μg/ml): 26.06
IFN-γ level ([1]; donor D6, 0.8 μg/ml): 850.98
IL-6 level ([1]; donor D6, 0.8 μg/ml): 51.15
IL-8 level ([1]; donor D6, 0.8 μg/ml): 25.94
TNF-α level ([1]; donor D6, 0.8 μg/ml): 24.31
EC50, CTLL-2 proliferation ([2]; Table 4): 0.846 ng/mL
EC50, CTLL-2 proliferation ([2]; Table 12): 0.4558 ng/mL
